For this assay, the system named is Mice. In words: Miles assay (induced vessel permeability). It counts as in vivo. Conditions: FIGS. 9A-9D. Here is the method:
One of the problems with angiogenesis-dependent diseases is increased vessel permeability (due to high levels of VPF) which results in edema and loss of proteins. A decrease in vessel permeability is beneficial in those diseases. We have found, using the Miles assay ([…], et al., Cancer Res, 56:172-181 (1996)), that free and bound TNP-470 block permeability. Briefly, a dye, Evans Blue (1% in PBS), was injected i.v. to anesthesized mice. After 10 min, human recombinant VEGF165 (50 ng/50 μl) was injected intradermally into the back skin. Leakage of protein-bound dye was detected as blue spots on the underside of the back skin surrounding the injection site. After 20 min mice were euthanized. Then, the skin was excised, left in formamide for 5 days to be extracted and the solution read at 620 nm. Putative angiogenesis inhibitors such as free and conjugated TNP-470 were injected daily 3 days (30 mg/kg/day) prior to the VEGF challenge. The same was repeated on tumor-bearing mice to evaluate the effect of angiogenesis inhibitors on tumor vessel permeability.

In the case of “Herceptin: "indirect" angiogenesis inhibitor”, the vessel permeability result is “no effect”.

(Values after patent US20050112063A1, “Methods for inhibiting vascular permeability” (priority 2002, published 2005).)
